Source: US9701711B2, “Modulators of protease activated receptors” (THE UNIVERSITY OF QUEENSLAND, priority 2010, dated 2017)

Molecular target: T1, PAR2 (Homo sapiens, UniProt P55085)
T1 sequence (P55085 26-397): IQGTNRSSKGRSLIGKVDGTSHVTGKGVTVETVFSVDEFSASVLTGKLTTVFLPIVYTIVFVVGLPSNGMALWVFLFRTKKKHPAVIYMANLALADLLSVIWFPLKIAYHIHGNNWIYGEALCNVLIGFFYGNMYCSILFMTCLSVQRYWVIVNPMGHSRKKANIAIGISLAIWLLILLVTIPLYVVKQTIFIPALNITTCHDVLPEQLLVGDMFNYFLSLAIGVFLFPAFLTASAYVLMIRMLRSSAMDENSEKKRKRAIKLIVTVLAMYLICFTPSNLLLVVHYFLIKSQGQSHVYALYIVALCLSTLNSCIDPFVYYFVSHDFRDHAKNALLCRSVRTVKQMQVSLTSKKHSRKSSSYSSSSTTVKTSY
Experiment: PAR2 agonist inhibition (antagonism) by intracellular Ca2+ release in HT29 cells
Type: cell-based
Design: Agonists of Ca^2+ release in HT29 cells; endogenous in cells; host or cells: HT29 (human cell line, cultured per ATCC information)
Conditions: 30 min pre-incubation, then PAR2 agonist (1 μM 2f-LIGRLO-NH2)
From the text: The ability of the compounds of the present invention to activate PAR2 may be assessed via calcium mobilisation assays. It is appreciated that compounds that activate the release of intracellular calcium from one type of cell are agonists or partial agonists, while those that inhibit such release may be antagonists. […] The general assay protocols may vary slightly depending on the chosen cell line. In general, during cell culture passage, cell dissociation solution (CDS, Sigma Aldrich) is used to replace trypsin to dissociate cells from surface. Lipopolysaccharide (LPS) and trypsin are purchased from Sigma Aldrich. […] ELISA sets are purchased from BD Pharmingen (San Jose, Calif.) and cytokine array kits are purchased from RayBiotecho (Norcross, Ga.).
Cells are seeded overnight in 96-well black walled, clear bottomed, plate at approximately 2×10^4 to 4×10^5 cells per well. […] The cells are then washed twice with HBSS and transferred to a Polarstar spectrotluorimeter (BMG, Durham N.C.). […]
The cells were then treated with 1 μM of the PAR2 agonist 2f-LIGRLO-NH2 (FIG. 2A. n=5) or 100 nM Trypsin (FIG. 2B, n=1). […] Net changes in fluorescence were calculated as a percentage relative to the maximum response given 1 μM 2f-LIGRLO-NH2 or 100 nM Trypsin. Changes in fluorescence (% response) were plotted against logarithmic compound concentrations. […]

Structure (SMILES): CC[C@H](C)[C@H](NC(=O)[C@H](CC1CCCCC1)NC(=O)c1cc(N)no1)C(=O)N1CCC2(C=Cc3ccccc32)CC1 [Compound 42, 5-(3-amino-isoxazoyl)-Cha-Ile-spiro[indene-1,4′-piperidine]]
- IC50: 1.2 µM
